# The list shows a part of the results, in another mix than the full data. The source made the active and inactive calls.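 How the source made its calls: active means calcium fluorescence response, raw or row-and-column corrected B-score, differing from the plate sample mean either way at a set confidence level, mostly lower; inactive means the rest.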
# By UniProt entry, the sequences of proteins in these tests, tags left out. Where a name states a change or a piece, a line headed by the entry shows the natural chain unless it says otherwise.
# UniProt P08482: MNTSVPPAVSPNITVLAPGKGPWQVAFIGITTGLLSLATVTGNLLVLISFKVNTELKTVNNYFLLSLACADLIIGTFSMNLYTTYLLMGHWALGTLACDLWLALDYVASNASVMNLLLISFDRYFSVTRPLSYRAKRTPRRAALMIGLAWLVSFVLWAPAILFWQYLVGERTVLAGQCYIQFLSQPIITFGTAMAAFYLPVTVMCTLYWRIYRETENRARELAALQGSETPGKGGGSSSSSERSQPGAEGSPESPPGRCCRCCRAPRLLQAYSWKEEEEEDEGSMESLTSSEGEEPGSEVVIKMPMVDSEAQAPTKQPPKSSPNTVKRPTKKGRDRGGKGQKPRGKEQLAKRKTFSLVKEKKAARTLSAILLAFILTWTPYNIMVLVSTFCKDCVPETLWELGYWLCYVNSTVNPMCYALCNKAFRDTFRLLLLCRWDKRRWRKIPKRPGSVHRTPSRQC
# Molecular target: Muscarinic acetylcholine receptor M1 (Rattus norvegicus) (UniProt P08482)
# Assay: blocks the rat M1 muscarinic receptor response to acetylcholine (AID 628)
# Conditions: CHO-M1 cells, Fluo-4 calcium, ACh EC80 antagonist mode; at 10 µM; stronger effect = lower value
row,Structure (SMILES),B-score
1,C[N+]1(C)[C@@H]2CC(OC(=O)[C@H](CO)c3ccccc3)C[C@H]1[C@@H]1O[C@@H]12 (some centres not stated),active: -12.1
2,COc1ccc(CCN2CCC(Nc3nc4ccccc4n3Cc3ccc(F)cc3)CC2)cc1,active: -14.3
